# Data reported in ChEMBL document CHEMBL1123089, “Reactivators of organophosphorus-inhibited acetylcholinesterase. 1. Imidazole oxime derivatives” (1985).
# How the values were obtained:
# [1] = pKa value was determined
# Electrophorus electricus = experiment: In vitro reactivating potency against TEPP-inhibited acetylcholinesterase (AcChE)
SMILES,pKa [1],Activity (Electrophorus electricus) [M]
C=CCn1cc(/C=N/O)[n+](C)c1SC.[I-],9.24,–
CCn1cc(/C=N/O)[n+](C)c1.[I-],9.57,0.0305
C=CCn1cc(/C=N\O)[n+](C)c1SC.[I-],9.42,0.0464
COc1ccc(-n2cc(/C=N/O)[n+](C)c2)cc1.[I-],9.43,–
COc1ccc(-n2cc(/C=N/O)[n+](C)c2SC)cc1.[I-],9.38,–
C[n+]1cn(-c2ccccc2)cc1/C=N/O.[I-],9.49,0.0335
CSc1n(-c2ccc(C)cc2)cc(/C=N/O)[n+]1C.[I-],9.04,0.0235
CCn1cc(/C=N/O)[n+](C)c1SC.[I-],9.56,0.0176
CCOc1ccc(-n2cc(/C=N/O)[n+](C)c2SC)cc1.[I-],9.12,0.0235
Cc1ccc(-n2cc(/C=N/O)[n+](C)c2)cc1.[I-],9.4,0.0453
C[n+]1ccccc1C=NO.[I-],–,0.1
CCOc1ccc(-n2cc(/C=N/O)[n+](C)c2)cc1.[I-],9.44,–
C=CCn1cc(/C=N/O)[n+](C)c1.[I-],9.56,0.0571
CSc1n(-c2ccccc2)cc(/C=N/O)[n+]1C.[I-],9.3,–
